Source: patent publication EP0973766B1, “QUINOXALINEDIONES” (Pfizer Limited, priority 1997, dated 1998)

Tests used:
[1] = molecular target: T1, glycine site of the NMDA receptor (Rattus norvegicus, UniProt P35439); details: read-out: Binding affinity IC50; pH 7.4
[2] = molecular target: T2, NMDA (glycine site) receptor (Rattus norvegicus, UniProt P35439); details: read-out: Functional in vitro glycine antagonism IC50
[3] = molecular target: T2, NMDA (glycine site) receptor; experiment: cell-based
[4] = molecular target: T1, glycine site of the NMDA receptor; experiment: biochemical

IC50 [3] | IC50 [4] | Compound | IC50 [1] | IC50 [2]
– | – | (-)-6,7-Dichloro-5-[3-methoxymethyl-5-(1-oxidopyridin-3-yl)-4H-1,2,4-triazol-4-yl]-2,3(1H,4H)-quinoxalinedione, silica complex [Reference Example 1] | 3.8 nM | 190 nM
140 nM | 2.4 nM | COCc1nnc(-c2ccc[n+]([O-])c2)n1-c1c(Cl)c(Cl)cc2[nH]c(=O)c(=O)[nH]c12 [Example 2, (-)-6,7-Dichloro-5-[3-methoxymethyl-5-(1-oxidopyridin-3-yl)-4H-1,2,4-triazol-4-yl]-2,3(1H,4H)-quinoxalinedione hydrate] | – | –

Where two headings read alike, the source gives them in different places.
